Paper PMC4065102, “In Vivo Near-Infrared Fluorescence Imaging of Apoptosis Using Histone H1-Targeting Peptide Probe after Anti-Cancer Treatment with Cisplatin and Cetuximab for Early Decision on Tumor Response” (PLoS ONE, 2014)

System: SNU-16 stomach tumor xenografts
Experiment: Anti-tumor treatment of mice and tumor size/weight measurement
Assay type: in vivo
Conditions: 3 weeks after treatment; cisplatin 5 mg/kg i.p. once per week x2, cetuximab 1.5 mg/kg i.p. twice per week x4; p<0.05, p<0.05, p<0.001 (linear ApoPep-1 group); p<0.05, p<0.01, p<0.001 (cyclic group)
Procedure: Eight-week old female athymic (nu/nu) Balb/c mice were purchased from Orient laboratories (Seongnam, Korea) and were housed under specific-pathogen-free conditions with laboratory chow and water ad libitum. Stomach tumor xenografts were established by subcutaneously injecting 1 x 10^7 SNU-16 cells in 100 µl saline into the right flank. Tumors were allowed to reach 50–60 mm^3 of volume before randomization and initiation of treatment. Treatment of tumor-bearing mice with cisplatin and cetuximab was conducted according to a previously described protocol. […] Changes in tumor size were measured over three weeks. Diameters of tumor were measured with automatic caliper. Tumor volumes were calculated using the formula: volume = (length x width x height)/2, where length, width, and height means the longest dimension, shorter dimension parallel to the mouse body, and diameter of tumor perpendicular to the length and width, respectively. Tumor weights were measured after isolation of tumor mass.
At 3 weeks after treatment (endpoint of experiments), tumor volumes were measured and tumors were isolated for the weight measurement. The correlation between NIR fluorescence intensity and tumor volume was evaluated by the linear regression analysis using the Graphpad software. […]

Q: How did the “tumor volumes compared to untreated control” value turn out when “cetuximab: anti-epidermal growth factor receptor antibody” was run?
A: reduced tumor volumes
